This note sets out measurements from article PMC5929447, “S55746 is a novel orally active BCL-2 selective and potent inhibitor that impairs hematological tumor growth” (Oncotarget, 2018).

Sequences of proteins named here, by UniProt entry; tags and fusion partners are left off.
UniProt P10415, whole entry: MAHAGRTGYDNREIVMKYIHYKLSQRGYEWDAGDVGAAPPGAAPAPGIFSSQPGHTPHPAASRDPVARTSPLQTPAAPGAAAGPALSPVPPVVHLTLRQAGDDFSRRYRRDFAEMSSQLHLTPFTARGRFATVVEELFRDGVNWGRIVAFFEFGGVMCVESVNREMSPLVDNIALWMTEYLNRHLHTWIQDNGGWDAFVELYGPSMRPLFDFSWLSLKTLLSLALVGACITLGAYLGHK

Common to all, as to assay type: binding
Assay [1] has as its target T1, BCL-2 (Homo sapiens, UniProt P10415). In words: Fluorescence polarization (FP) with Fluorescein-PUMA, BCL-2. As to conditions: Fluorescein-PUMA as binder; bottom limit for the FP assay 1.2 nM; read-out: FP_BCL-2_KI.
For assay [2], the target named is T1, BCL-2. The assay can be described thus: Isothermal titration calorimetry (ITC), BCL-2. As to conditions: 25 °C; ND = not determinable (too potent); read-out: ITC_BCL-2_KD. The method, then: The protein was dialyzed prior to use in 2 L of 25 mM HEPES, 150 mM NaCl, 5% glycerol (v/v), 0.5% MTG (v/v) at pH 7.4 for 3 hours at room temperature. The protein was dialyzed using a 3.5 K MWCO Slide-A-Lyzer™ cassette. The protein solution was recovered, spin-filtered through a […] frit. The filtered protein was quantified by UV absorbance at 280 nm using an extinction coefficient of 36440 M^-1cm^-1. 500 ml of dialysis buffer was retained (remainder used to rinse out SCHOT bottle) and degassed for a minimum of 30 mins under vacuum with constant stirring. Typically, 50 μM protein was titrated from the syringe into the cell containing 5 μM compound. The solutions were carefully matched to ensure same solvent and buffer conditions were present in both syringe and cell (this is to minimize heat of dilution effects). The final solution was the dialysis buffer plus 1% DMSO and 0.05% P20. The experiment was performed over 13 injections with stirring at 1000 rpm, gain setting low and at 25° C. Pure water was used in the reference cell. The first injection was 0.5 μl with a duration of 1 second with a gap of 150 seconds until the further 12 injections of 3.05 μl with a duration 6.1 seconds and a 240 second interval between injections. Data was analyzed using the vendor supplied software, PEAQ-ITC Analysis Software. The data model used was the single site model. […]
A general note: Isothermal titration calorimetry measures the heat released or taken up as one component is titrated into another.

In assay [3] the target is T1, BCL-2. In words: Surface plasmon resonance affinity in solution (SPR AIS), BCL-2. As to conditions: read-out: SPR AIS_BCL-2_KD. (In general: In SPR one partner is held on a chip, and binding of the other changes the refractive index at the surface.)

For the molecule `CC1(C)CCC(c2ccc(Cl)cc2)=C(CN2CCN(c3ccc(C(=O)NS(=O)(=O)c4ccc(N[C@H](CCN5CCOCC5)CSc5ccccc5)c(S(=O)(=O)C(F)(F)F)c4)cc3)CC2)C1` [ABT-263, reference compound], the Ki (as a rule, the equilibrium dissociation constant of an inhibitor or competing ligand from its target) in assay [1] stood at 4.5 nM. For the same molecule, the equilibrium dissociation constant (Kd) (as a rule, the constant that tells how readily two partners part at equilibrium) stood at 3.7 nM in assay [2] and 2.1 nM in assay [3].
